Literature values, collected in paper PMC4896453 (PLoS ONE, 2016).

Key:
[1] = tested on: rat; settings: rat models; cited from earlier work
[2] = tested on: rat; settings: rat models; cited from earlier work; remark: listed apart in the source

In the case of `CN(C)[C@]1(c2ccccc2)CC[C@]2(CC1)OCCc1c3cc(F)ccc3[nH]c12`, the “effect on motor coordination or respiration” value [1] is given as “did not disrupt motor coordination or respiration” and the time to tolerance [2] is given as 26 days.
